Results taken from ChEMBL document CHEMBL5042498, “Development of 3-(4-Chlorophenyl)-1-(phenethyl)urea Analogues as Allosteric Modulators of the Cannabinoid Type-1 Receptor: RTICBM-189 is Brain Penetrant and Attenuates Reinstatement of Cocaine-Seeking Behavior” (J Med Chem, 2022).

The chains behind the UniProt entries cited, without tags or fusion partners.
UniProt P21554, whole entry: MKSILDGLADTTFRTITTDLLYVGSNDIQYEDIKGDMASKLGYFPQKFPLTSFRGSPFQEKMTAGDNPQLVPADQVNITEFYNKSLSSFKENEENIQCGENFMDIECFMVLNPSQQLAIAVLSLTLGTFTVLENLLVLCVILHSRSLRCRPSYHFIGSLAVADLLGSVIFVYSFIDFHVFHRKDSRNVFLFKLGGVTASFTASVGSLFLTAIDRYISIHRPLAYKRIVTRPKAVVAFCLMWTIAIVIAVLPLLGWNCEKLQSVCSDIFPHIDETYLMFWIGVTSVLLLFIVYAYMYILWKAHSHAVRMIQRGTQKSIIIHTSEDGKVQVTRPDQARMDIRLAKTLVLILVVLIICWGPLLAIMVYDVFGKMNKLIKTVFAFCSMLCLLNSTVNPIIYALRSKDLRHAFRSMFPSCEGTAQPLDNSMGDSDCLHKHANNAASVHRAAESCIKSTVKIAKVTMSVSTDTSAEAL

Experiments:
[1] = rat, microsomes, 0.75 h
Cannabinoid receptor 1 = Cannabinoid receptor 1 (Homo sapiens, UniProt P21554); assay: Agonist activity at human CB1 receptor CP55940-stimulated calcium mobilization at 10 uM incubated for 15 mins FLIPR assay relative to control; type: functional
How it was run: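 Agonist screen in CHO-RD-HGA16 cells stably expressing hCB1, loaded with Calcium 5 dye for 45 min at 37 °C and pretreated with buffer vehicle. Test compound is added at a single 10 μM concentration by FLIPR Tetra. Fluorescence is read every 1 s for 90 s (ex/em 485/525 nm). RFU are expressed as % of CP55,940 Emax.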

O=C(NCCc1cccc(Cl)c1)Nc1ccc(Cl)cc1 showed a QH [1] of 70.6% and an Emax (Cannabinoid receptor 1) of under 30%.
